Experimental data published in patent publication US8946287B2, “Chemotherapeutic flavonoids, and syntheses thereof” (Purdue Research Foundation, priority 2006, dated 2015).

Sequences of proteins named here, by UniProt entry; tags and fusion partners are left off. A change or cut given only in a name is not applied to a line headed by its entry.
UniProt P11511: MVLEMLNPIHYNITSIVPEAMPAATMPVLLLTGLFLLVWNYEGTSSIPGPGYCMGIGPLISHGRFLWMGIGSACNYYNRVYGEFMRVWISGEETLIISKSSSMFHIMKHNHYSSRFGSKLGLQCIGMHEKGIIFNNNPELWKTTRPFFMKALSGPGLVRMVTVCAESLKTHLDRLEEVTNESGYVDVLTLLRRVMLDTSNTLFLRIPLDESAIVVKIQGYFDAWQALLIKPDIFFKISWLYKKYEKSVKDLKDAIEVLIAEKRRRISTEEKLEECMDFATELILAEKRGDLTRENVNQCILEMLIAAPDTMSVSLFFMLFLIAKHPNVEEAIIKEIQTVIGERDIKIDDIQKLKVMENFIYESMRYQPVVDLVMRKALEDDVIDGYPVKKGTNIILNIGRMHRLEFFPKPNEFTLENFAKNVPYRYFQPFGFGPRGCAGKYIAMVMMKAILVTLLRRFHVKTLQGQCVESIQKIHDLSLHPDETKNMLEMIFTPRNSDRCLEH

Molecular target: aromatase (CYP19, BD Biosciences) (Homo sapiens, UniProt P11511)
Experiment: Assay for inhibition of aromatase activity (fluorescence, dibenzylfluorescein)

IC50: 40.9 ± 11.3 µM
Compound: CC(C)=CCc1cc(C2CC(=O)c3ccc(O)cc3O2)ccc1O (racemic) [8b, 7-Hydroxy-2-(4-hydroxy-3-(3-methylbut-2-enyl)phenyl)chroman-4-one]
